Experimental data as given in ChEMBL document CHEMBL2385035, “Discovery of a highly potent, nonabsorbable apical sodium-dependent bile acid transporter inhibitor (GSK2330672) for treatment of type 2 diabetes” (J Med Chem, 2013).

Molecular target: T1, Ileal sodium/bile acid cotransporter (Homo sapiens, UniProt Q12908)
T1 sequence (Q12908 whole entry): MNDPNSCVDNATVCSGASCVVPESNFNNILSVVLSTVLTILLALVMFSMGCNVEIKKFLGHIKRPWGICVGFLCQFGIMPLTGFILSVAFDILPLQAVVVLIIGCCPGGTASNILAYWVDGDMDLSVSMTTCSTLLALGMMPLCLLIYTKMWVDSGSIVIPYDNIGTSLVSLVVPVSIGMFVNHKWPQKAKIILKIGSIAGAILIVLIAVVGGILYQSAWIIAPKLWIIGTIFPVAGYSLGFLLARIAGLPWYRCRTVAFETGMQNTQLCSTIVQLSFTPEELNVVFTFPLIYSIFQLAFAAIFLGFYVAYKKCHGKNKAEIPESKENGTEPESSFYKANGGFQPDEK
Assay: Inhibition of human ASBT expressed in HEK293 cells assessed as inhibition of [3H]-taurocholate uptake after 90 mins by scintillation counting analysis
Type: cell-based

IC50: 97 nM
SMILES: CCCC[C@]1(CC)CS(=O)(=O)c2cc(C(=O)NC(CC(=O)O)CC(=O)O)c(OC)cc2[C@@H](c2ccccc2)N1
